Test results taken from ChEMBL document CHEMBL1132372, “The opioid mu agonist/delta antagonist DIPP-NH(2)[Psi] produces a potent analgesic effect, no physical dependence, and less tolerance than morphine in rats” (J Med Chem, 1999).

Sequences of proteins named here, by UniProt entry; tags and fusion partners are left off.
UniProt P33535, whole entry, looked up: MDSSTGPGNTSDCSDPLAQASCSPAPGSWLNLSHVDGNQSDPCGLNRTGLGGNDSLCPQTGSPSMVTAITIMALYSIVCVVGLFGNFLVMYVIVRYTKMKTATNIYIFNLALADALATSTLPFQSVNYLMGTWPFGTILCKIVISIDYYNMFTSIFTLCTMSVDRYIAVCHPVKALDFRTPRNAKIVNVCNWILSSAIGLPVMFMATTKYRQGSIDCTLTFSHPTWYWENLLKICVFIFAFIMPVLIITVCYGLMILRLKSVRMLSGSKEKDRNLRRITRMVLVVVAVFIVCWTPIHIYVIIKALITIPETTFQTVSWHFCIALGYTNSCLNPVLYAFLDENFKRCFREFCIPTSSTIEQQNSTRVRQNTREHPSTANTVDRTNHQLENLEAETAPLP

What follows are compounds tested against Mu-type opioid receptor (Rattus norvegicus) (UniProt P33535) (assay: Ratio of binding affinity towards mu to delta opioid receptors).

First: CN[C@@H](Cc1c(C)cc(O)cc1C)C(=O)N1Cc2ccccc2C[C@H]1C(=O)N[C@@H](Cc1ccccc1)C(=O)N[C@@H](Cc1ccccc1)C(N)=O
Second: CN[C@@H](Cc1c(C)cc(O)cc1C)C(=O)N1Cc2ccccc2CC1CN[C@@H](Cc1ccccc1)C(=O)N[C@@H](Cc1ccccc1)C(N)=O (stereo partly drawn)
The Ratio of the first is higher: 10.4 for the first, 1.25 for the second.

`NC(=O)[C@H](Cc1ccccc1)NC(=O)[C@H](Cc1ccccc1)NCC1Cc2ccccc2CN1C(=O)[C@@H](N)Cc1ccc(O)cc1` (stereo partly drawn) was tested, and the Ratio was 26.3.
